This is an account of results in PMC9469208 (Journal of Medicinal Chemistry, 2022).

The experiment has as its system PTZ-kindled mice. Conditions: repeated injection, after kindling completion.

`CCCC(CCC)C(=O)O` [VPA, valproic acid]: the “effect on spontaneous locomotor activity, anxiety- and depressive-like behavior” value is reported as “did not produce any significant effects”.
